Data taken from patent US20020127717A1, “Preparation of replicating macrophages and use in diagnosis and therapy” (priority 2000, published 2002).

Columns and labels:
Assay type in all cases: cell-based
[1] = system: human Kupffer cell isolates (KC-1, KC-2, KC-3); experiment: DNA synthesis assay (3H-Thymidine), stimulation by growth factors, Kupffer cell isolates; parameters: key to Stimulation Index of Cultured Target cells: ratio: uptake with stimulatory agent / uptake in medium alone
Method: (§1) DNA Synthesis Assay: DNA synthesis was determined by culturing the cells with ^3H-Thymidine as is standard in the art. The KC isolates used in the assay were at day 21 post liver isolation. The normal endothelial cells and foreskin fibroblasts were cultured in media consisting of RPMI-1640, fetal bovine serum 20% supplemented with specific factors as described in Nakamura S and Salahuddin SZ, Science 242: 426-430,1988. KC isolates were cultured as described above. Cells were harvested between 4 hours and 18 hours culture depending on the stimulatory agent used. A stimulation index was calculated by dividing radioactivity incorporated into cells with the stimulatory agent versus cells in culture medium alone.
(§2) Various growth factors were tested for their ability to stimulate growth of the human Kupffer cell isolates (KC-3) and other cell types. KC isolates used in this experiment were grown in culture for 21 days with MCG medium.

[2] = system: Human Umbilical Vein Endothelial Cells (HUV-E); experiment: DNA synthesis assay (3H-Thymidine), stimulation by growth factors, HUVE
Method: as §1
(§3) Cultured Cells: Human umbilical vein endothelial cells (HUV-E) were prepared as described in Nakamura et al, Science 1988. Bovine capillary endothelial cells (BCE) were a gift from Dr. Peter Biberfeld of Karolinska Institute, Stockholm, Sweden. Normal human foreskin fibroblasts (HSF) were obtained from the American Type Tissue Culture Collection (ATCC), Rockville, Md. (CRL-1635).
as §2

[3] = system: Bovine Capillary Endothelial Cells (BCE); experiment: DNA synthesis assay (3H-Thymidine), stimulation by growth factors, BCE
Method: as §1, §3, §2

[4] = system: Human Foreskin Fibroblast Cells (HSF); experiment: DNA synthesis assay (3H-Thymidine), stimulation by growth factors, HSF; conditions: HFS
Method: as §1, §3, §2

[5] = system: human Kupffer cell isolates (KC-1, KC-2, KC-3); experiment: DNA synthesis assay (3H-Thymidine), stimulation by growth factors, Kupffer cell isolates; parameters: key: ratio: uptake with stimulatory agent / uptake in medium alone

In the case of “IL-2: IL-2 = Natural product, lot # 019, Genzyme Inc.”, the “effect on DNA synthesis of KC isolates (in words)” value ([1]; KC isolates grown 21 days in MCG medium, summary of Table 3) is reported as “weakly simulated DNA synthesis”, the “Stimulation Index of Cultured Target cells” value (from here on “Stimulation Index”) ([1]; KC-3, HC (hydrocortisone) +) is reported as 2.8 and the “Stimulation Index” value ([1]; KC-3, HC (hydrocortisone) −) is reported as 2.8. The “Stimulation Index” value ([2]; HC (hydrocortisone) +) was 3.2, the “Stimulation Index” value ([2]; HC (hydrocortisone) −) was 2.8 and the “Stimulation Index” value ([3]; HC (hydrocortisone) +) was 2.8. For the same substance, the “Stimulation Index” value ([3]; HC (hydrocortisone) −) was 2.0, the “Stimulation Index” value ([4]; HC (hydrocortisone) +) was 2.0 and the “Stimulation Index” value ([4]; HC (hydrocortisone) −) was 2.0. For the same substance, the “Stimulation Index” value ([5]; KC-1, HC (hydrocortisone) +) was 2.1, the “Stimulation Index” value ([5]; KC-1, HC (hydrocortisone) −) was 1.8 and the “Stimulation Index” value ([5]; KC-2, HC (hydrocortisone) +) was 2.9. The “Stimulation Index” value ([5]; KC-2, HC (hydrocortisone) −) was 2.4.
